Experiment: Analysis of residual solids from water slurry (XRPD, 1H-NMR) for form conversion
Assay type: physicochemical
Conditions: water slurry overnight, ambient temperature

Substance | XRPD of residual solid from water slurry / aqueous solubility
phenobarbital benzathine | consistent with the initial material
phenobarbital betaine [phenobarbital betaine salt] | unique compared to the initial material

Source: patent publication US20100035904A1, “PHE[…]; METHODS OF MAKING; AND METHODS OF USE THEREOF” (priority 2008, published 2010)
